Bioassay records from PubChem.
Compounds with a hit are over-represented: about 2.1% of the library has one in this group of screens.
GRP78 ERSR act – ER stress response induction in glioma; Potency, µM, without a hit: at the top dose activation, most hits filed as activators; AID 602332; U87-MG GRP78 promoter luciferase reporter, 16 h; 0.02% of 420,000 active; note: potency is the fitted concentration of half-maximal effect; series mostly up to about 76 µM; % of control where 0% means no effect; nearly all actives have a fitted effect of over 35% in size
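ERSR induction read as luciferase luminescence (Bright-Glo, 10 min at room temperature) in stably transfected human U87-MG glioma cells exposed to compounds for 16 h, using GRP78 as sensor.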
Nrf2 ARE act – activators of Nrf2 (ARE) signaling; AREc32 ARE-luciferase reporter (MCF7-derived line), luminescence, 24 h; 0.31% of 410,000 active; Potency, µM (titrated, usually from 46.1 µM), inactives show at the highest dose activation, hits mostly activators; AID 624171; note: potency is the fitted concentration of half-maximal effect; % of control where 0% means no effect; nearly all actives have a fitted effect of over 65% in size
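For detection, Steady-Glo was added and plates sat 30 min at RT; before that, AREc32_Fluc cells grown overnight in OPTI-MEM/5% FBS had been treated with 23 nL compound for 24 hr at 37 deg C.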
PTAP TSG101 blk – blocks PTAP/TSG101 interaction to inhibit HIV-1 budding; Potency, µM (highest dose often 115 µM), inactives show at the top dose activity change, negative = inhibition, actives largely listed as inhibitors; Fluorescence polarization, FITC-PTAP peptide / Tsg101 binding; 340,000 tested, under 10 active; Q99816; active = well fitted inhibition curve with a large enough effect in the main read-out, with a control signal flat, not every such curve was filed as active; inconclusive = small, poorly fitted or top-dose-only effect, or effect the other way, or a change in a side signal; inactive = no such curve, though single readings can be large or run the other way; note: potency is the fitted concentration of half-maximal effect; % of control where 0% means no effect
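Compounds were pin-transferred onto Tsg101 binding domain (10 uM final) in HEPES pH 7.5 buffer, then FITC-PTAP peptide was added at 50 nM final. After 20 min at RT, polarization reported peptide displacement across a qHTS concentration series.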
Nrf2 block – Nrf2 pathway inhibition; A549 ARE-Fluc reporter, luciferase luminescence, 18-24 h; Potency, µM (highest dose often 46 µM), for the others: top-dose activity change, negative = inhibition, most hits filed as inhibitors; 2.1% of 360,000 active; note: potency is the fitted concentration of half-maximal effect; % is set by controls: 0 for no effect and ±100 for the full control effect; nearly all actives have a fitted effect of over 60% in size
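Two sequential reads on A549 ARE_Fluc cells exposed to compound for 18-24 h: a CellTiter-Fluor fluorescence read for viability, then a luciferase luminescence read for Nrf2/ARE activity.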
miR-21 reporter – miR-21 reporter, rising signal. 340,000 tested, under 10 active. Potency, µM (highest dose often 38.3 µM), for the others: at the highest dose reporter change, positive = more light. HeLa miR-21 FLuc reporter, luciferase, 48 h. AID 2288; active = well fitted rising curve with a large enough effect; inconclusive = small, poorly fitted or top-dose-only effect; inactive = no such curve, though single readings can be large or run the other way;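 further: % of control where 0% means no effect; miR-21 action dims this reporter so a rising signal means less miR-21 action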
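Using DMEM plus 10% FBS, HeLa miR-21-FLuc cells are incubated with test compounds (final up to about 40uM) for 48 hours; firefly luciferase signal is then imaged following reagent-mediated lysis.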
A549 tox – A549 cytotoxicity, counter-screen for Nrf2 inhibitors | A549 ARE-Fluc cells, CellTiter-Fluor viability, 18-24 h | Potency, µM (top dose mostly 46 µM), without a hit: at the top dose activity change, negative = cytotoxicity, usual class: inhibitors | 0.16% of 390,000 active | AID 504648; note: potency is the fitted concentration of half-maximal effect; % is set by controls: 0 for no effect and ±100 for the full control effect
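Cytotoxicity counterscreen: CellTiter-Fluor fluorescence was measured in A549 ARE_Fluc cells after 18-24 h of compound exposure in a concentration series. The subsequent BugLite luminescent read reports ARE-luciferase activity.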
* = called active by the depositor; u = inconclusive; x = no result given. Unless noted, calls come from the whole dose curve; as a rule, active = well fitted curve in the direction sought with a large enough effect; inconclusive = small, poorly fitted or top-dose-only effect, or another doubt; inactive = no such curve, though single readings can be large; an effect the other way counts as inactive or inconclusive.

1. Cc1cccc(N(C(=O)c2snc(C(N)=O)c2N)C(C(=O)NCc2ccccc2)c2ccncc2)c1 (configuration not stated)
2. COc1ccc(N(C(=O)c2snc(C(N)=O)c2N)C(C(=O)NCc2ccccc2)c2ccc(O)cc2)cc1 (configuration not stated)
3. CCCc1ccc(C(C)NC(=S)NCc2ccc(F)cc2)cc1 (configuration not stated)
4. CCC(C)c1ccc(C(C)NC(=S)NCc2ccc(F)cc2)cc1 (configuration not stated)
5. Cc1nc2ccccc2nc1CN1CCOc2ccc(C(C)(O)COc3ccccc3)cc2C1 (configuration not stated)
6. Cc1oc(-c2cccc(Br)c2)nc1Cn1c(SCc2cccc(F)c2)nc2cccnc21
7. CC1=C(C(=O)OCC2CCCO2)C(c2cccc(C(F)(F)F)c2)C2=C(CC(c3ccco3)CC2=O)N1 (configuration not stated)
8. CC(C1CC1)N(Cc1ccccc1)C(=S)Nc1ccccc1Cl (configuration not stated)
assay / entry	1	2	3	4	5	6	7	8
Nrf2 ARE act	0%	1%	2%	1%	x	0%	4%	2%
miR-21 reporter	-45%	0%	u	u	x	2%	17%	6%
A549 tox	-15%	-3%	0%	-21%	x	-25%	u	-12%
Nrf2 block	23µM*	11%	u	15µM*	x	13µM*	23µM*	29µM*
PTAP TSG101 blk	-2%	-10%	-2%	-7%	x	x	-5%	-1%
GRP78 ERSR act	-7%	-5%	10%	-6%	1%	-4%	0%	-2%

9. COC(=O)c1ccccc1NC(=O)c1ncoc1-c1ccco1
10. COc1ccccc1NC(=O)c1ncoc1-c1ccco1
11. COCC(=O)Nc1cc(C(=O)N2CC3(C)CC2CC(C)(C)C3)c2c(c1)nc(-c1ccncc1)n2C (configuration not stated)
12. CCOC(=O)c1c(C)nc2c(c1-c1ccccc1)C(=O)c1ccccc1-2
13. CC1(C)Nc2cccc3c(N=Nc4ccc(N=Nc5ccccc5)c5ccccc45)ccc(c23)N1
14. O=[N+]([O-])c1ccc(NN=Cc2ccco2)nc1
15. O=[N+]([O-])c1ccc(N/N=C\c2cccnc2)nc1
16. O=C(c1ccc2n[nH]nc2c1)N1CCN(c2ccc(C(F)(F)F)cn2)CC1
assay / entry	9	10	11	12	13	14	15	16
Nrf2 ARE act	1.1µM*	u	x	-1%	x	0.89µM*	5%	0%
miR-21 reporter	2%	-15%	x	-6%	x	x	4%	x
A549 tox	5%	11%	x	-19%	x	u	-10%	-12%
Nrf2 block	x	x	x	13µM*	x	u	u	15µM*
PTAP TSG101 blk	x	x	x	-4%	x	-11%	-5%	-7%
GRP78 ERSR act	-3%	-2%	6%	3%	-3%	4%	-2%	-5%

17. O=C(c1ccccn1)N1CCN(c2ccc(C(F)(F)F)cn2)CC1
18. O=C(CN1CC(=O)Oc2ccccc21)OCC(=O)c1cccc(Br)c1
19. O=C(CN1CC(=O)Oc2ccccc21)OCC(=O)c1ccccc1
20. CC(=NNc1nc2ccccc2s1)c1ncccn1
21. COc1ccc2cc(CCNC(=O)c3cc4ccccc4o3)c(=O)[nH]c2c1
22. O=C(O[C@H]1[C@H](Cc2ccccc2)NS(=O)(=O)[C@H]2C[C@@H]3C=C[C@]12O3)c1ccccc1Br
23. O=C(NCc1ccc(F)cc1)c1ccc(S(=O)(=O)Nc2cccc(C(F)(F)F)c2)cc1
24. N=c1ccn2c(n1)O[C@@H]1[C@H](O)[C@H](CO)O[C@@H]12
assay / entry	17	18	19	20	21	22	23	24
Nrf2 ARE act	-1%	13µM*	u	11µM*	0%	x	0%	x
miR-21 reporter	-9%	-15%	-18%	x	10%	x	10%	x
A549 tox	-3%	-7%	u	u	-11%	x	-5%	x
Nrf2 block	u	-3%	6%	u	10µM*	x	23µM*	x
PTAP TSG101 blk	-6%	-2%	-6%	1%	0%	x	0%	x
GRP78 ERSR act	-1%	-2%	2%	-4%	-4%	-1%	-4%	-3%

An excerpt of these results, with tabs.
nr	compound	Nrf2 ARE act	miR-21 reporter	A549 tox	Nrf2 block	PTAP TSG101 blk	GRP78 ERSR act
17	O=C(c1ccccn1)N1CCN(c2ccc(C(F)(F)F)cn2)CC1	-1%	-9%	-3%	u	-6%	-1%
21	COc1ccc2cc(CCNC(=O)c3cc4ccccc4o3)c(=O)[nH]c2c1	0%	10%	-11%	10µM*	0%	-4%
22	O=C(O[C@H]1[C@H](Cc2ccccc2)NS(=O)(=O)[C@H]2C[C@@H]3C=C[C@]12O3)c1ccccc1Br	x	x	x	x	x	-1%
18	O=C(CN1CC(=O)Oc2ccccc21)OCC(=O)c1cccc(Br)c1	13µM*	-15%	-7%	-3%	-2%	-2%

New compounds follow.
25. N=c1nc2n(cc1F)C1OC(CO)C(O)C1O2 (configuration not stated)
26. Cc1ccc(-n2c(Cc3cccs3)nnc2SCC(=O)Nc2ccc(F)c(F)c2)cc1
27. COc1ccc(-c2[nH]c(-c3cc(OC)c4c(c3)OCO4)nc2-c2ccccc2)cc1
28. COc1cc(=O)n2c(c1C(=O)N(C)Cc1ccsc1)CCN(Cc1c(C)nn(C)c1Cl)CC2
29. Nc1cc(-c2ccc(Br)cc2)nn1Cc1ccccc1
30. N#CC(C#N)=C(Nc1ccc(F)cc1)SCc1cccc(F)c1
31. CCOc1ccc(N/C(SCc2cccc([N+](=O)[O-])c2)=C(/C#N)C(N)=O)cc1
32. Cc1cccc(-n2ncc3c2CCCC3NC(=O)CCc2ccncc2)c1C (configuration not stated)
assay / entry	25	26	27	28	29	30	31	32
Nrf2 ARE act	0%	3%	2%	x	3%	u	u	-1%
miR-21 reporter	x	2%	21%	x	-9%	u	14%	17%
A549 tox	u	-14%	u	x	-11%	u	-3%	-7%
Nrf2 block	0.13µM*	23µM*	23µM*	x	10µM*	4.6µM*	-19%	5.8µM*
PTAP TSG101 blk	-3%	-4%	-2%	x	-3%	-19%	1%	-2%
GRP78 ERSR act	-1%	-6%	-1%	-4%	7%	-4%	-5%	-3%

33. Cc1cccc(N2CCN(C(=O)CCS(=O)(=O)c3ccc4c(c3)NC(=O)CO4)CC2)c1C
34. CC1Sc2ccc(S(=O)(=O)CCC(=O)N3CCN(c4cccc(Cl)c4)CC3)cc2NC1=O (configuration not stated)
35. CC(=O)ON(C(C)=O)c1ccc(/C=C2/C=Cc3ccccc32)cc1
36. CCc1cccc(CC)c1NC(=O)CSc1nc2ccc(N3C(=O)C4C(C3=O)[C@H]3C=C[C@@H]4C3)cc2s1 (some centres not stated)
37. COC(=O)C1=C(C)NC2=C(C(=O)CCC2)C1c1cn(Cc2ccc(Cl)cc2Cl)nc1-c1ccccc1 (configuration not stated)
38. CCOC(=O)C1=C(C)NC2=C(C(=O)CCC2)C1c1cn(Cc2ccc(Cl)cc2Cl)nc1-c1ccccc1 (configuration not stated)
39. COc1ccc(-c2noc(CCC(=O)NC3CCCCC3)n2)cc1
40. COc1ccc(-c2noc(CCCC(=O)NC3CCCC3)n2)cc1
assay / entry	33	34	35	36	37	38	39	40
Nrf2 ARE act	-1%	0%	x	0%	-1%	4%	0%	-1%
miR-21 reporter	27%	u	x	-1%	1%	20%	-3%	u
A549 tox	-5%	u	x	-10%	u	u	-11%	u
Nrf2 block	15µM*	16µM*	x	13µM*	26µM*	u	16µM*	12µM*
PTAP TSG101 blk	1%	-3%	x	0%	-7%	0%	1%	0%
GRP78 ERSR act	-7%	-1%	1%	18%	2%	0%	-1%	-12%
